Results published in ChEMBL document CHEMBL2218924, “A broad activity screen in support of a chemogenomic map for kinase signalling research and drug discovery” (Biochem J, 2013).
For part of these data: This list holds what a sample rich in strong results left over. No rule for the calls is given here. The list shows a part of the results, in another mix than the full data.

Amino acid sequences for entries named in this document (tags omitted). A change or cut given only in a name is not applied to a line headed by its entry.
UniProt P43250, whole entry, looked up: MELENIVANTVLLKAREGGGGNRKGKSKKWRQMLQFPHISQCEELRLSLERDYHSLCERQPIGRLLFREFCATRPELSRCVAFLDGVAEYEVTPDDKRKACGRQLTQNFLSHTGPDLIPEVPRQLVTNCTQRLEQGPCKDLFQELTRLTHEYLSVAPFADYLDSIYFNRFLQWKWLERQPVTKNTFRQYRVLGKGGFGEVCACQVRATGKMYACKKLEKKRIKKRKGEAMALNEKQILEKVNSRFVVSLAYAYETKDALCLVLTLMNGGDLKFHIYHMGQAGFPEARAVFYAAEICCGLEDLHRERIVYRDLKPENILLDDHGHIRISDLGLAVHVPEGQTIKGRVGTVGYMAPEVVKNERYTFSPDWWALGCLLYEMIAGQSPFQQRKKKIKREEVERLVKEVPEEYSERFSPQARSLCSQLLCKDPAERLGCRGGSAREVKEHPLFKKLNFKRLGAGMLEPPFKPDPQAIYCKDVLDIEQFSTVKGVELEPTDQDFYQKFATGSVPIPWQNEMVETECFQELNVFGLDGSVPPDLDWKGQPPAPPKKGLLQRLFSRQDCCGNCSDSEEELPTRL
UniProt Q13976: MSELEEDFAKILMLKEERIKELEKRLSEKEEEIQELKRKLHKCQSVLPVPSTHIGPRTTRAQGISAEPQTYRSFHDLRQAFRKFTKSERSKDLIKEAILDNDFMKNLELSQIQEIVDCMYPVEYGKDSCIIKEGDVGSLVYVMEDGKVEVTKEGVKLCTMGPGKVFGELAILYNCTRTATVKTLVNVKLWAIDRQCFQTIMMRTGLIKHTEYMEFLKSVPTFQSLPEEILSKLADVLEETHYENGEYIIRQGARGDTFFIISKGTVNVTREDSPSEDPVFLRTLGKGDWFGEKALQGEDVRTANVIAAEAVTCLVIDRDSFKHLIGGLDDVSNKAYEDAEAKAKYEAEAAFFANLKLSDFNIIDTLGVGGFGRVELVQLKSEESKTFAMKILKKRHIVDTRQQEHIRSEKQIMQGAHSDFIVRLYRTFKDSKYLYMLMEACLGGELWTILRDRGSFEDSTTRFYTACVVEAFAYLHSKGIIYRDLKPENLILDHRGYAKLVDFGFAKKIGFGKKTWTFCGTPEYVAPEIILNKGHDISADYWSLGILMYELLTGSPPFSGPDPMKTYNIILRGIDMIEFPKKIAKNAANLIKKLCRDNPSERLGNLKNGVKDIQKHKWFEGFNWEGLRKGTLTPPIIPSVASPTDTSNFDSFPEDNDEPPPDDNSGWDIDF
UniProt P42685: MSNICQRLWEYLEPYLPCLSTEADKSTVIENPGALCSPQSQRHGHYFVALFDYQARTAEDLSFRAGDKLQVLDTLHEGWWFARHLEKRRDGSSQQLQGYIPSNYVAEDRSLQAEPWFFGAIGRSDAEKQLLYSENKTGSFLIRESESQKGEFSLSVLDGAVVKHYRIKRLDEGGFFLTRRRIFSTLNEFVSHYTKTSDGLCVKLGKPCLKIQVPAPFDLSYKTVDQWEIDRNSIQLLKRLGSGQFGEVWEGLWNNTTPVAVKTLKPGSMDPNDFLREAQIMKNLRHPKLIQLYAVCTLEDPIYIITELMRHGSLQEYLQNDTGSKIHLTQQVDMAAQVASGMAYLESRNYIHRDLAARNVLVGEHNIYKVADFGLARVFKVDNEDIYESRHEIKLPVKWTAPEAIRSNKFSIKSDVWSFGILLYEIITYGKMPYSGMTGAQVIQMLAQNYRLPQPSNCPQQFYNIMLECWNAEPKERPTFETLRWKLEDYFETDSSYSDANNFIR
UniProt Q9H4B4: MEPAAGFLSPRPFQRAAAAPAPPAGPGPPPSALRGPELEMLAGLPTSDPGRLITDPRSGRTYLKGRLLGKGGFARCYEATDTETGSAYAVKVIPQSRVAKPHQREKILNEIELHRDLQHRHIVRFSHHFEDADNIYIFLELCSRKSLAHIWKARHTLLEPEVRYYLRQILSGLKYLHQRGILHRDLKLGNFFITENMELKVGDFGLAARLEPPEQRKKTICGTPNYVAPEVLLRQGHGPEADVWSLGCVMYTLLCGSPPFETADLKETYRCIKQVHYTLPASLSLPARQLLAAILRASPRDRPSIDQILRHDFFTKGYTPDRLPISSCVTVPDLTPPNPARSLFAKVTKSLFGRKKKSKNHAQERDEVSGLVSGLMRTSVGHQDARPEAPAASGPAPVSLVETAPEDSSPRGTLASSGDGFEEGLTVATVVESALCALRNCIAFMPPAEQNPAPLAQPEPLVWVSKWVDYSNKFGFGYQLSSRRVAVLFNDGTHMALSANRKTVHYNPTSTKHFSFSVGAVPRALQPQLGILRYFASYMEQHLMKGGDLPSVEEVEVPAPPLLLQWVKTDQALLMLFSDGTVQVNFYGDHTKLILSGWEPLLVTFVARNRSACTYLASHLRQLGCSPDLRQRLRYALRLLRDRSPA
UniProt O75116: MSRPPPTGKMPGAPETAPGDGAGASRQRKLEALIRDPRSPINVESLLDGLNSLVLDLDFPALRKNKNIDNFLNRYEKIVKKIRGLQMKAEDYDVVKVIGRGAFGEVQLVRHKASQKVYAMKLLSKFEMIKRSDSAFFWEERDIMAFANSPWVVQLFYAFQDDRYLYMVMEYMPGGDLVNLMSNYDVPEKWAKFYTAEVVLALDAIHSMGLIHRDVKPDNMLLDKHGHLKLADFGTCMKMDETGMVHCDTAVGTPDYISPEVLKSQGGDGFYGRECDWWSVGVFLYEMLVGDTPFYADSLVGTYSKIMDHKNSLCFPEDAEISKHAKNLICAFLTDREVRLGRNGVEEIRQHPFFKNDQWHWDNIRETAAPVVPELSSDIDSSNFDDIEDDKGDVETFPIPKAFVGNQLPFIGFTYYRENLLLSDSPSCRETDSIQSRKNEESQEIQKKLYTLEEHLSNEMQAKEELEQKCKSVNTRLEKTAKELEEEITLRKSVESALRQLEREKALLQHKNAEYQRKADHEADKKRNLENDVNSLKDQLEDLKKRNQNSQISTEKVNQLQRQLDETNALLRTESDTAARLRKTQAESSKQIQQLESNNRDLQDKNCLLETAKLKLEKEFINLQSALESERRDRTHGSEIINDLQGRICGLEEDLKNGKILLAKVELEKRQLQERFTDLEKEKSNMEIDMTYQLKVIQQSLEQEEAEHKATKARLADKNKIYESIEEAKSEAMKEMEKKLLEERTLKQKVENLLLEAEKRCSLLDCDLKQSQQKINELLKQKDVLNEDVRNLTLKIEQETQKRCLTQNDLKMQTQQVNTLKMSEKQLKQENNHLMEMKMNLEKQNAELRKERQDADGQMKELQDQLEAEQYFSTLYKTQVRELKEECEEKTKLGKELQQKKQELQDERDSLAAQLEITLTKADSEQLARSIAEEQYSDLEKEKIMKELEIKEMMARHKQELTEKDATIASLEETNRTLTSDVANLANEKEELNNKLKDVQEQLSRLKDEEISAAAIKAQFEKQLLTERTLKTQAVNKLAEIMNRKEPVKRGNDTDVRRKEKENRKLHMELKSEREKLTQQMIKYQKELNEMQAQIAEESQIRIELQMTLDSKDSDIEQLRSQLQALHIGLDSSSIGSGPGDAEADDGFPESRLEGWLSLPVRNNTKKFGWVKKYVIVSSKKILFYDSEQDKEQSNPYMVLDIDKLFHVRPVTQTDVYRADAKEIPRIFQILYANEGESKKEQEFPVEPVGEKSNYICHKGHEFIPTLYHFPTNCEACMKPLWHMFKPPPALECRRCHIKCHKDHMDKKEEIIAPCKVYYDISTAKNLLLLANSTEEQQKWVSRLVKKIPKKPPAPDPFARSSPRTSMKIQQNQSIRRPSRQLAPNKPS
UniProt Q15759, whole entry: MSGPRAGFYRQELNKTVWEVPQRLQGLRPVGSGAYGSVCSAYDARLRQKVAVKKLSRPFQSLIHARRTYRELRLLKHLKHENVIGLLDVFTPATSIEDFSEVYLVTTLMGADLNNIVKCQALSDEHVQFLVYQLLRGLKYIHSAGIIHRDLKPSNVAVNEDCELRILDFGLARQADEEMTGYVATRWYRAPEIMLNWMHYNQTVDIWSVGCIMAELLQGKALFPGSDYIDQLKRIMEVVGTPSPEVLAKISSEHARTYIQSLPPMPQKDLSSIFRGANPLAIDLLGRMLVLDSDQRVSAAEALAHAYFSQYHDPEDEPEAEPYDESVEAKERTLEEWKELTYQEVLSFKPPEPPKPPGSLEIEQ
UniProt Q9HBY8: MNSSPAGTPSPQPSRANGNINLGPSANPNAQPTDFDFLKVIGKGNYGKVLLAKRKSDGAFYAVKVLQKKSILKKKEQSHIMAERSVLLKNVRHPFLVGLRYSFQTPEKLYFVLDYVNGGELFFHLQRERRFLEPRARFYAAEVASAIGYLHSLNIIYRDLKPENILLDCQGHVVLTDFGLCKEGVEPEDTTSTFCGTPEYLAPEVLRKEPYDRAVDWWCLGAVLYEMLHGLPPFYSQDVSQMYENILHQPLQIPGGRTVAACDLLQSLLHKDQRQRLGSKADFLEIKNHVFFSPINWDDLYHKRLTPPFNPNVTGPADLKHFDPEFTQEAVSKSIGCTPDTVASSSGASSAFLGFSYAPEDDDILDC
UniProt Q96BR1: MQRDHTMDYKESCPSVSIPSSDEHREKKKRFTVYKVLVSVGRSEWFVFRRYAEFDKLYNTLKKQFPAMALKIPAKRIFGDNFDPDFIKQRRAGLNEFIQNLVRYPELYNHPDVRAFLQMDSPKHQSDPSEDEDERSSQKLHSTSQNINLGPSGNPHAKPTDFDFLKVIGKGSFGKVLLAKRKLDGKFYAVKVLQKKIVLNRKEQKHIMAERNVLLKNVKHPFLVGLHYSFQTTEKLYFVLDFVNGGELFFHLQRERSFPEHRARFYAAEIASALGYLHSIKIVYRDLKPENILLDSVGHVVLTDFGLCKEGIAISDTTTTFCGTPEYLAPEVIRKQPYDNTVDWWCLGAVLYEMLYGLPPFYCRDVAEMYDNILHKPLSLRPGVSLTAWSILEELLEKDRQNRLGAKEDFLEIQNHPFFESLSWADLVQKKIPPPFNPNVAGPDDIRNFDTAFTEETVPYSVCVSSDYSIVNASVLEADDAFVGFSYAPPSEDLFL
UniProt Q96SB4, whole entry: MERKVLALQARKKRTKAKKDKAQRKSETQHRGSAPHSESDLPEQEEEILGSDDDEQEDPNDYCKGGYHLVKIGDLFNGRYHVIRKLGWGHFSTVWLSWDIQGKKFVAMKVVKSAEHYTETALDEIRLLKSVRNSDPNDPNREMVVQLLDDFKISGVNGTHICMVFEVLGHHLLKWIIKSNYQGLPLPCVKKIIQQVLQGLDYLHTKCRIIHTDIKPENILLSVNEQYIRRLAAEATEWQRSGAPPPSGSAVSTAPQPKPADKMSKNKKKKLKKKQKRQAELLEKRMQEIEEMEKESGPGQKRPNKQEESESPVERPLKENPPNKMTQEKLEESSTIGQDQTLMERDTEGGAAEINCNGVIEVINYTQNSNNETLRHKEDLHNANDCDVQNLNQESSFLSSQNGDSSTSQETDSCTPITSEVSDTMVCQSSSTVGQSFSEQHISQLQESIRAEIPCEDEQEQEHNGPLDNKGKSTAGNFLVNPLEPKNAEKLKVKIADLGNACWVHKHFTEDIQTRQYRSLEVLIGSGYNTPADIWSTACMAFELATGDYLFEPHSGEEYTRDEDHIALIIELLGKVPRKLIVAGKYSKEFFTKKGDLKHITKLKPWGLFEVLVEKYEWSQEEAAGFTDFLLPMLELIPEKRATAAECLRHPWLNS
UniProt P78362, whole entry, looked up: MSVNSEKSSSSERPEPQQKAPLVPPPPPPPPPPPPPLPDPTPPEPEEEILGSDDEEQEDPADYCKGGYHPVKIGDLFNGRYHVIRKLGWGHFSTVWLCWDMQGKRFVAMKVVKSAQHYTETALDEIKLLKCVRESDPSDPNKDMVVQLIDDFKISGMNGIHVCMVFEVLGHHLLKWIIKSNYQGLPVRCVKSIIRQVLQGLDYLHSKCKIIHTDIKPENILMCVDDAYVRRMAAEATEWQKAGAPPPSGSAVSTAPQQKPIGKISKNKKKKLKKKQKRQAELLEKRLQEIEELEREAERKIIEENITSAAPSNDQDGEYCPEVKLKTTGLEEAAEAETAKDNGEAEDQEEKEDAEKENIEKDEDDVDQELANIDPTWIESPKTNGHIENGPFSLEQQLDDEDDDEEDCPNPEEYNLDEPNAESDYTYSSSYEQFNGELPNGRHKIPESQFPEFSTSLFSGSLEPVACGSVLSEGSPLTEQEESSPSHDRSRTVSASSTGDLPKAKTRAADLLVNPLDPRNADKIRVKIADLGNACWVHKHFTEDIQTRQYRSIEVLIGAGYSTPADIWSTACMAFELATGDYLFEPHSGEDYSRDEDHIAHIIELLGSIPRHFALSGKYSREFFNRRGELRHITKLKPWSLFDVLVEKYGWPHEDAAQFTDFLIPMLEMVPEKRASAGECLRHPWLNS

How the values were obtained:
[1] = target: Tyrosine-protein kinase Fes/Fps (Homo sapiens) (UniProt P07332); conditions: at 1 µM
[2] = target: G protein-coupled receptor kinase 6 (Homo sapiens) (UniProt P43250); conditions: at 1 µM
[3] = target: Rhodopsin kinase GRK7 (Homo sapiens) (UniProt Q8WTQ7); conditions: at 1 µM
[4] = target: Protein kinase C zeta type (Homo sapiens) (UniProt Q05513); conditions: at 10 µM
[5] = target: Protein kinase C eta type (Homo sapiens) (UniProt P24723); conditions: at 1 µM
[6] = target: T1, Protein kinase C iota type (Homo sapiens) (UniProt P41743); conditions: at 1 µM
T1 sequence (whole entry): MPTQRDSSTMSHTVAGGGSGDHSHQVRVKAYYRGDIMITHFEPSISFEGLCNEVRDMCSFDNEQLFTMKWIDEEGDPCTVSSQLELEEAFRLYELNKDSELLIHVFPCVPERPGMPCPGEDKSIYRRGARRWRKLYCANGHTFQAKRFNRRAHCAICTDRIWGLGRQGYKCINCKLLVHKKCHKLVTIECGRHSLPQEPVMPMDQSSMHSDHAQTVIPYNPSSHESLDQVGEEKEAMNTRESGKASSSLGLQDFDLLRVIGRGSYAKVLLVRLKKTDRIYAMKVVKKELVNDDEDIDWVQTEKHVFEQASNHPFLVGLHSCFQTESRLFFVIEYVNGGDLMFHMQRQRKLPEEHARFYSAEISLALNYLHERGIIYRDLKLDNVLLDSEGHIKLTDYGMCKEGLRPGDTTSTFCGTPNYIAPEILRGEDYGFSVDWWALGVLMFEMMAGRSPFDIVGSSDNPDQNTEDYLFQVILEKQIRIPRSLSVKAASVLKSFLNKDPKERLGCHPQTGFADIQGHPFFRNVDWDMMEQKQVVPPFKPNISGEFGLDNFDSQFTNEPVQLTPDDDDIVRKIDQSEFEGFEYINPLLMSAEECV

[7] = target: T2, Serine/threonine-protein kinase D1 (Homo sapiens) (UniProt Q15139); conditions: at 1 µM
T2 sequence (whole entry): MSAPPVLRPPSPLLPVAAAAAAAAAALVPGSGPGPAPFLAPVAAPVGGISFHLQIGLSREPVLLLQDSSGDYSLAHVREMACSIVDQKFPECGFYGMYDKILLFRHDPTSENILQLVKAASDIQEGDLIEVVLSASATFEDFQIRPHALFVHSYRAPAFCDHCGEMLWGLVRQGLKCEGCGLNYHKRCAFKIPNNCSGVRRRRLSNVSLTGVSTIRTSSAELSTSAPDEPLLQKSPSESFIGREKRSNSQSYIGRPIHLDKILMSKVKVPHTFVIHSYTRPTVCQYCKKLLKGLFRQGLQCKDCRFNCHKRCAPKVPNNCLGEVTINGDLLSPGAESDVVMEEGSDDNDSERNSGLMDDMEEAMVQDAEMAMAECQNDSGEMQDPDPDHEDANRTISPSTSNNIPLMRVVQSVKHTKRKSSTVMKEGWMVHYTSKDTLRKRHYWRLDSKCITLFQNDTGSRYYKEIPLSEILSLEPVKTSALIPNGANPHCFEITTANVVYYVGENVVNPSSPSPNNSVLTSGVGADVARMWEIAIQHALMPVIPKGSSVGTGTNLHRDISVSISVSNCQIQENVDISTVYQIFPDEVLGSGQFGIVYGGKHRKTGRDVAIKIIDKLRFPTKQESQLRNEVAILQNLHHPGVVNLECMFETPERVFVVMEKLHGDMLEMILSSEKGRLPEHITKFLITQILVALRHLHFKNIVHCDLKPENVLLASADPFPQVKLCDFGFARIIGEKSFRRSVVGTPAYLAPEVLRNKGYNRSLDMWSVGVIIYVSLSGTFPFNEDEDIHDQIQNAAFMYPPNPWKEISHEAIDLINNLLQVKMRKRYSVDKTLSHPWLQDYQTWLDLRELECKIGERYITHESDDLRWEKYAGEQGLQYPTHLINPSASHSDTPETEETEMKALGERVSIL

[8] = target: T3, Serine/threonine-protein kinase D2 (Homo sapiens) (UniProt Q9BZL6); conditions: at 1 µM
T3 sequence (whole entry): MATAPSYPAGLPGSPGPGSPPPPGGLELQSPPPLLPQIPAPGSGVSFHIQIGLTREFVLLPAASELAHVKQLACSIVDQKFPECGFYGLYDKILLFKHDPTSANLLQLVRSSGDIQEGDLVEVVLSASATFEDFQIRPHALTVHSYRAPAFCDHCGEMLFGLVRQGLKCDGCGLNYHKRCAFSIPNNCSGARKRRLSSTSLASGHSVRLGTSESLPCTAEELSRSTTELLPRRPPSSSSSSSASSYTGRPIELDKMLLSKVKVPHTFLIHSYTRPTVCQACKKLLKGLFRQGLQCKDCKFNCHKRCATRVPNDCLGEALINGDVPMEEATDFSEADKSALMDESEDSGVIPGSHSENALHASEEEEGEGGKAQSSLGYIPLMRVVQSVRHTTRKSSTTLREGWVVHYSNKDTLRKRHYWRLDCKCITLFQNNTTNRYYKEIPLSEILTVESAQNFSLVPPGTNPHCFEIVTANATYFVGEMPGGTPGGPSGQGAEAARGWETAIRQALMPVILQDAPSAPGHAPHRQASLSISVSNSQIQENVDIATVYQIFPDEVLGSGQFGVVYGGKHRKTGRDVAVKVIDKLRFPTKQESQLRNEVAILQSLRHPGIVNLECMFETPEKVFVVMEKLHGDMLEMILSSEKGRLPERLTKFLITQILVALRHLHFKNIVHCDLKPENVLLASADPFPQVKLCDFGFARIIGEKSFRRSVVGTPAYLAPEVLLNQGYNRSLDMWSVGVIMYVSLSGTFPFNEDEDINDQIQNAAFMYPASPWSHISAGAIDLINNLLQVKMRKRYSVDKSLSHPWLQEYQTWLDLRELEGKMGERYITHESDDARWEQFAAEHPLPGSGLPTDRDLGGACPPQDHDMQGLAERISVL

[9] = target: T3, Serine/threonine-protein kinase D2 (Homo sapiens); conditions: at 10 µM
[10] = target: cGMP-dependent protein kinase 1 (Homo sapiens) (UniProt Q13976); conditions: at 10 µM
[11] = target: T4, MAP kinase-activated protein kinase 5 (Homo sapiens) (UniProt Q8IW41); conditions: at 1 µM
T4 sequence (whole entry): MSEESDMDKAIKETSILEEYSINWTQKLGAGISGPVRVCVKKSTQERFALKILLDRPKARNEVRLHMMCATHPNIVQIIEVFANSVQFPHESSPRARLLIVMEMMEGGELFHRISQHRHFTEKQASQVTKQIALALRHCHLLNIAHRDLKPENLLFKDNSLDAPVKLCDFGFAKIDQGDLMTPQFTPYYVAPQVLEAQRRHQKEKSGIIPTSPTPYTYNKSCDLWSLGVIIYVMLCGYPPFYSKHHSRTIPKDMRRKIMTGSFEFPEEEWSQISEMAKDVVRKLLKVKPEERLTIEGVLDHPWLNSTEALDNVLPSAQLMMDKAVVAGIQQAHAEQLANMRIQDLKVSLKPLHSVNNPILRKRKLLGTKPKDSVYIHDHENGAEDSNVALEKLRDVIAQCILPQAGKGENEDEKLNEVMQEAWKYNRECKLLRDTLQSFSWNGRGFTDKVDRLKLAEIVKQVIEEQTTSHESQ

[12] = target: Tyrosine-protein kinase FRK (Homo sapiens) (UniProt P42685); conditions: at 1 µM
[13] = target: Tyrosine-protein kinase FRK (Homo sapiens) (UniProt P42685); conditions: at 10 µM
[14] = target: T5, Phosphorylase b kinase gamma catalytic chain, liver/testis isoform (Homo sapiens) (UniProt P15735); conditions: at 10 µM
T5 sequence (whole entry): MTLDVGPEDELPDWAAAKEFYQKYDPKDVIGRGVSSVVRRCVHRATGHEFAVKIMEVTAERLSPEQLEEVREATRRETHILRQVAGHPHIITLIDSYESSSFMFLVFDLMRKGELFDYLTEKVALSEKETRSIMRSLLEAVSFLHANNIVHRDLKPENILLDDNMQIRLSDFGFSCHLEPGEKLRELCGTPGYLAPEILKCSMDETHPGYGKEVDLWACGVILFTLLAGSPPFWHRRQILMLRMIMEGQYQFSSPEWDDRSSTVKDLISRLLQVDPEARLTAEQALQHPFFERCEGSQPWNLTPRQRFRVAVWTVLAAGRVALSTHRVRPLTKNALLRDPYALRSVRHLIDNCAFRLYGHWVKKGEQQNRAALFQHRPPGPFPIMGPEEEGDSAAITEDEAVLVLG

[15] = target: Serine/threonine-protein kinase PLK3 (Homo sapiens) (UniProt Q9H4B4); conditions: at 10 µM
[16] = target: cAMP-dependent protein kinase catalytic subunit PRKX (Homo sapiens) (UniProt P51817); conditions: at 1 µM
[17] = target: cAMP-dependent protein kinase catalytic subunit PRKX (Homo sapiens) (UniProt P51817); conditions: at 10 µM
[18] = target: Rho-associated protein kinase 1 (Homo sapiens) (UniProt Q13464); conditions: at 10 µM
[19] = target: Rho-associated protein kinase 2 (Homo sapiens) (UniProt O75116); conditions: at 1 µM
[20] = target: Proto-oncogene tyrosine-protein kinase ROS (Homo sapiens) (UniProt P08922); conditions: at 1 µM
[21] = target: Proto-oncogene tyrosine-protein kinase ROS (Homo sapiens) (UniProt P08922); conditions: at 10 µM
[22] = target: T6, Tyrosine-protein kinase receptor TYRO3 (Homo sapiens) (UniProt Q06418); conditions: at 1 µM
T6 sequence (whole entry): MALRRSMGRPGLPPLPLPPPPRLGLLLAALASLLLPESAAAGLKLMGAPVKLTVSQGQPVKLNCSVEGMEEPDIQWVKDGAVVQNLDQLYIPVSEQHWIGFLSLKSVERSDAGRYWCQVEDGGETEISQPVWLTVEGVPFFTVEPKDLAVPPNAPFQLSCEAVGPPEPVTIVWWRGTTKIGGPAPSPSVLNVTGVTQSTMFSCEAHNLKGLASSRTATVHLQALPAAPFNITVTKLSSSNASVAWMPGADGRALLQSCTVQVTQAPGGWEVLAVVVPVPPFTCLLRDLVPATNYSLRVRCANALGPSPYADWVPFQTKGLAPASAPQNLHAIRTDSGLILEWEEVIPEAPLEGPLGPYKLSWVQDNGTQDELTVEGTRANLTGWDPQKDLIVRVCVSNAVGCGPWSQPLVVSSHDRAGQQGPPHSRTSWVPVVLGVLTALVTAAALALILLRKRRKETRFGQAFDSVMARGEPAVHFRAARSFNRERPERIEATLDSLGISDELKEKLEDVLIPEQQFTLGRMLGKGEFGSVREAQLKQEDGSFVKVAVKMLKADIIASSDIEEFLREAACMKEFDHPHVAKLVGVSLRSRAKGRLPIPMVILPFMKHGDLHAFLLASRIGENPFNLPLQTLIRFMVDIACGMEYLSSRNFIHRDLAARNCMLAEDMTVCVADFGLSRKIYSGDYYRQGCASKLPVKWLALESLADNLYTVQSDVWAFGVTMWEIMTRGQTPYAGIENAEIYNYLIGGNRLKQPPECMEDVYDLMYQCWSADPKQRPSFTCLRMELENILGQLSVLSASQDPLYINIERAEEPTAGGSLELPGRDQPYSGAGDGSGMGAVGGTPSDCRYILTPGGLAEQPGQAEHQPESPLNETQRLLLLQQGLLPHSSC

[23] = target: Mitogen-activated protein kinase 11 (Homo sapiens) (UniProt Q15759); conditions: at 10 µM
[24] = target: T7, Serine/threonine-protein kinase Sgk1 (Homo sapiens) (UniProt O00141); conditions: at 1 µM
T7 sequence (whole entry): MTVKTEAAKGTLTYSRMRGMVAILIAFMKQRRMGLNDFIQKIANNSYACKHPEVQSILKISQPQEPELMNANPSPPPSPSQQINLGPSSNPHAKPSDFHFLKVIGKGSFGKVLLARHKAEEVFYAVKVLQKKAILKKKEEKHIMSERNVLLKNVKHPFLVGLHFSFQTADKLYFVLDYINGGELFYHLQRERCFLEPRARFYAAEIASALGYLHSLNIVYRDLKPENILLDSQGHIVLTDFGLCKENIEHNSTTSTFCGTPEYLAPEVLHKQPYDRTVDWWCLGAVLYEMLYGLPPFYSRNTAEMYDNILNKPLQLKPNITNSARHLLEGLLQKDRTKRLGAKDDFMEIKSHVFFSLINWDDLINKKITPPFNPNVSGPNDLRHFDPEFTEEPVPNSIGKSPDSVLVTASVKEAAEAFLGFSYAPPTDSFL

[25] = target: T7, Serine/threonine-protein kinase Sgk1 (Homo sapiens); conditions: at 10 µM
[26] = target: Serine/threonine-protein kinase Sgk2 (Homo sapiens) (UniProt Q9HBY8); conditions: at 1 µM
[27] = target: Serine/threonine-protein kinase Sgk3 (Homo sapiens) (UniProt Q96BR1); conditions: at 10 µM
[28] = target: SRSF protein kinase 1 (Homo sapiens) (UniProt Q96SB4); conditions: at 1 µM
[29] = target: SRSF protein kinase 2 (Homo sapiens) (UniProt P78362); conditions: at 1 µM
[30] = target: Serine/threonine-protein kinase 33 (Homo sapiens) (UniProt Q9BYT3); conditions: at 1 µM

O=C1NC(=O)C(c2cn(CCCO)c3ncccc23)=C1c1cnccn1
residual activity [1]: 102% | residual activity [2]: 105% | residual activity [3]: 106% | residual activity [4]: 102% | residual activity [5]: 111% | residual activity [6]: inactive: 104% | residual activity [7]: 102% | residual activity [8]: 98% | residual activity [9]: 104% | residual activity [10]: 122% | residual activity [11]: 105% | residual activity [12]: 97% | residual activity [13]: 105% | residual activity [14]: 112% | residual activity [15]: 99% | residual activity [16]: 107% | residual activity [17]: 101% | residual activity [18]: 108% | residual activity [19]: 104% | residual activity [20]: 101% | residual activity [21]: 98% | residual activity [22]: 99% | residual activity [23]: 104% | residual activity [24]: 113% | residual activity [25]: 106% | residual activity [26]: 113% | residual activity [27]: 103% | residual activity [28]: 107% | residual activity [29]: 101% | residual activity [30]: 101%
